Results: ChEMBL document CHEMBL1121721 (J Med Chem, 1981)

Amino acid sequences for entries named in this document (tags omitted).
UniProt P32300, whole entry: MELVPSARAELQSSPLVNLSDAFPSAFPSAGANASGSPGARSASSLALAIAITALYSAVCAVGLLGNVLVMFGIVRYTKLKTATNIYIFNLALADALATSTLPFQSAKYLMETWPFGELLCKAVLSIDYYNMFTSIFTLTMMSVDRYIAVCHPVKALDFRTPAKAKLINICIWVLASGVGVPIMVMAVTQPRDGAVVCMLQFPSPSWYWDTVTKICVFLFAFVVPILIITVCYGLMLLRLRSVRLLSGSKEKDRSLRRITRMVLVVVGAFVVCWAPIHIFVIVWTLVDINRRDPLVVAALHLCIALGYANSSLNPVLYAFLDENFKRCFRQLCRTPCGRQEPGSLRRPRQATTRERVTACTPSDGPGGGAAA

Target: Delta-type opioid receptor (Mus musculus, UniProt P32300)
Experiment: Inhibitory potency against delta Opioid receptor delta 1 in longitudinal muscle preparation of mouse vas deferens

## CSCC[C@H](NC(=O)[C@H](Cc1ccccc1)NC(=O)CNC(=O)CNC(=O)[C@@H](N)Cc1ccc(O)cc1)C(=O)O
  IC50: 13 nM
